Results from patent EP1246824B1, “CARBOXAMIDE DIAZEPIN DERIVATIVES, PREPARATION METHOD, USE AS MEDICINES, PHARMACEUTICAL COMPOSITIONS AND USE THEREOF” (Aventis Pharma S.A., priority 1999, dated 2001).

Chains of the proteins cited; added tags and fusions are not shown. Residues count along the entry.
UniProt P43235, 115-329 limits assumed: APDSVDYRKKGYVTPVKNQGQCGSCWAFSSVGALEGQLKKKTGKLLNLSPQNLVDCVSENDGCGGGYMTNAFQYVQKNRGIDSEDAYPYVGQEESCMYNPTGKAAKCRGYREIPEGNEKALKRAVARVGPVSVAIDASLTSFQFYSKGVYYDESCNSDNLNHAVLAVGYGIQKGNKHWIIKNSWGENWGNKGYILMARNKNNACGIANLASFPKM
UniProt P00784, 134-345 limits assumed: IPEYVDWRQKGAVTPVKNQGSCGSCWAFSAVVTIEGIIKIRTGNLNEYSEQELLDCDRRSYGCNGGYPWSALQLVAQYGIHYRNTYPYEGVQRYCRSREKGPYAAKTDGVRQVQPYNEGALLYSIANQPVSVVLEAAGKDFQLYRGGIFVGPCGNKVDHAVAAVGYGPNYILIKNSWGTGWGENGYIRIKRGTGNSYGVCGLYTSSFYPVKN

Key:
Details in all cases: percentage printed in parentheses after the value 20; not explained, presumably % inhibition at 20 µM
Cathepsine K = Cathepsine K (Homo sapiens, UniProt P43235); test: Inhibition of Cathepsine K (fluorogenic substrate Z-Val-arg-AMC)
Method: Etude de l'inhibition de Cathepsine K :
(§1) Les produits à tester (10 mM) sont dilués à 1 mM en DMSO et repartis dans des plaques 96 puits polystyrène Nunc à raison de 2 µl par puits. La colonne 12 de la plaque est réservée pour les contrôles et reçoit donc […] de DMSO (sans produits) par puits. Les plaques sont conservées à -80°C et décongelées le jour de l'expérience.
(§2) Les produits sont dilués à 50 µM par addition de 38 µl de tampon réaction : acétate de sodium 100 mM, EDTA 5 mM, DTT 1 mM pH 5,5. L'addition ainsi que tous les pipetages suivant sont réalisés par un pipeteur 96 cônes CybiWell. Après mélange des solutions, chaque produit est transféré dans 2 puits (duplicates) d'une plaque 384 puits noire Greiner à raison de 10 µl par puits. On peut donc tester 2 plaques 96 dans une plaque 384.
(§3) Une solution de substrat à 50 µM, Z-Val-arg-AMC (Calbiochem), est préparée dans le tampon réaction . Le substrat, est ensuite distribué dans tous les puits de la plaque 384 (20 µl par puits).
(§4) Une solution de Cathepsine K à 12,5 ng/ml est préparée dans le tampon réaction et distribuée dans tous les puits de la plaque 384 (20 µl par puits) exceptés les 16 puits servant de contrôles 100 % d'inhibition (colonne 23 et 24, lignes I à P) qui recevront 20 µl de tampon sans enzyme. Les contrôles […] d'inhibition sont réalisés dans les colonnes 23 et 24, lignes A à H qui ne contiennent pas de produits.
(§5) Les plaques sont ensuite incubées 2H à température ambiante, puis lues sur Fluoroskan (Labsystems) : excitation 390 nm; émission 460 nm
(§6) Les concentrations finales de chacun des réactifs sont : Produits 10 µM, Substrat 20 µM, enzyme 5 ng/ml.
(§7) Les % d'inhibition pour chacun des produits sont calculés en utilisant les points à 0 et 100 % d'inhibition de chaque plaque comme références. Les produits présentant une inhibition significative sont ensuite retestés sur une gamme de concentration allant de 50 à 0,5µM pour déterminer une IC50.

Cathepsine B = Cathepsine B (Homo sapiens, UniProt P07858); test: Inhibition of Cathepsine B (fluorogenic substrate Z-arg-arg-AMC)
Method: as §1, §2, §3, §4, §5, §6, §7
Etude de l'inhibition de Cathepsine B: […]

Papain = Papain (Carica papaya, UniProt P00784); test: Inhibition of Papain (protocol as for Cathepsine K)
Method: as §1, §2, §3
as §4, with “produits. […]” for “produits.”

Structure (SMILES) | IC50 µM Cathepsin K, percentage in parentheses (Cathepsine K) | IC50 µM Cathepsin B, percentage in parentheses (Cathepsine B) | IC50 µM Papain, percentage in parentheses (Papain)
CC(C)(C)Oc1ccc(C[C@H](NC(=O)[C@@H]2CCCN3C(=O)CC[C@H](NS(=O)(=O)c4ccc5ccccc5c4)C(=O)N23)C(=O)CSc2nnnn2-c2ccccc2)cc1 | 20(20%) | 20(20%) | –
CC(C)(C)Oc1ccc(C[C@H](NC(=O)[C@@H]2CCCN3C(=O)CC[C@H](NC(=O)NCCc4cccs4)C(=O)N23)C(=O)CSc2nc3ccccc3s2)cc1 | 20 (20%) | – | –
C=CCOC(=O)CC[C@H](NC(=O)[C@@H]1CCCN2C(=O)CC[C@H](NC(=O)Nc3ccc(Oc4ccccc4)cc3)C(=O)N12)C(=O)COC(=O)CCCC(=O)OC | 35% | – | 18%)
CC(C)(C)Oc1ccc(C[C@H](NC(=O)[C@@H]2CCCN3C(=O)CC[C@H](NS(=O)(=O)c4ccc5ccccc5c4)C(=O)N23)C(=O)CSc2nc3ccccc3s2)cc1 | – | 20(20%) | –
C=CCOC(=O)CC[C@H](NC(=O)[C@@H]1CCCN2C(=O)CC[C@H](NC(=O)Nc3ccc(Oc4ccccc4)cc3)C(=O)N12)C(=O)CN1CCC(Cc2ccccc2)CC1 | – | 25% | 20(20%)
